Read-outs that look alike come from different tables or passages of the source.
Biological target: IRAK4 (Homo sapiens (Human), UniProt Q9NWZ3)
Assay: Screening the compounds against IRAK4 with ATP (Caliper, FAM-labeled peptide)
Assay type: biochemical
Settings: for IC50: read-out: IC50 (nM) (10 μM ATP)
Protocol: Prepare Ix kinase base buffer and stop buffer for testing kinases: (1) base buffer: 50 mM HEPES (pH 7.5), 0.0015% Brij-35; (2) stop buffer: 100 mM HEPES (pH 7.5), 0.015% Brij-35, 0.2% Coating Reagent #3, 50 mM EDTA. Then prepare compounds for testing: Dilute the compound to 50× of the final desired highest inhibitor concentration in reaction by 100% DMSO. Transfer 100 μL of this compound dilution to a well in a 96-well plate (source plate).
Serially dilute the compounds by 3-fold for a total of 10 points. Transfer 10 μL of the compound from the source plate to a new 96-well plate (intermediate plate) and add 90 μL of Ix kinase buffer. Shake the mixture on the intermediate plate for 10 min. Transfer 5 μL of each well from the 96-well intermediate plate to a 384-well plate in duplicates. Add 10 μL of 2.5× enzyme solution to each well of the 384-well assay plate and incubate at room temperature for 10 min. Add 10 μL, of 2.5×FAM-labeled peptide and ATP solution and incubate at 28° C. for a period of time. Finally stop the reaction by adding 30 μL of stop buffer and collect data on Caliper to obtain the IC50.

Protein sequences, listed by entry. Tags and fused reporters are not part of them.
UniProt Q9NWZ3, whole entry: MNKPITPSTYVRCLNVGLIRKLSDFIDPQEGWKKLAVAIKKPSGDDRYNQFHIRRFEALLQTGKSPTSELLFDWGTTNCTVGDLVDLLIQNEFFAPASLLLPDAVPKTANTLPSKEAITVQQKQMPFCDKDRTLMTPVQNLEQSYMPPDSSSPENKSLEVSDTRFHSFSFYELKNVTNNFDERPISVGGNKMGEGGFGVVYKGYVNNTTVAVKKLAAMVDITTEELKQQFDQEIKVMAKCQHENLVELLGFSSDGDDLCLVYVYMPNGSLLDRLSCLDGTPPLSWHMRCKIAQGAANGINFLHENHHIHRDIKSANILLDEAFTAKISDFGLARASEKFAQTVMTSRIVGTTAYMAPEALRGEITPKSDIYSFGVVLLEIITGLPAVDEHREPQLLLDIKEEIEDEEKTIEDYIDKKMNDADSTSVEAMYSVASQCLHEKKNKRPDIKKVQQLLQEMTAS

Row | IC50 (IRAK4 kinase, 10 μM ATP) [nM] | SMILES | IC50 [nM] | activity, times better than that of the positive control compound CA4948
1 | 22 | Cn1cc(-c2cccc(NC(=O)c3cc4c(nc3OCCO)OC(C)(C)C4)n2)cn1 [Compound B18, 6-(2-Hydroxyethoxy)-2,2-dimethyl-N-(6-(1-methyl-1H-pyrazol-4-yl)pyridin-2-yl)-2,3-dihydrofuro[2,3-b]pyridine-5-carboxamide] |  | 
2 | 18 | COCCOc1nc2c(cc1C(=O)Nc1cccc(-c3cnn(C)c3)n1)CC(C)(C)O2 [Compound B19, 6-(2-Methoxyethoxy)-2,2-dimethyl-N-(6-(1-methyl-1H-pyrazol-4-yl)pyridin-2-yl)-2,3-dihydrofuro[2,3-b]pyridine-5-carboxamide] |  | 
3 |  | CN(C)CCOc1nc2c(cc1C(=O)Nc1cccc(-c3cnn(C)c3)n1)CC(C)(C)O2 [Compound B32, 6-(2-(Dimethylamino)ethoxy)-2,2-dimethyl-N-(6-(1-methyl-1H-pyrazol-4-yl)pyridin-2-yl)-2,3-dihydrofuro[2,3-b]pyridine-5-carboxamide] | 236 | 
4 |  | Cn1cc(-c2cccc(NC(=O)c3cc4c(nc3O[C@H]3C[C@H](O)C3)OC(C)(C)C4)n2)cn1 [Compound B36, 6-(trans-3-Hydroxycyclobutoxy)-2,2-dimethyl-N-(6-(1-methyl-1H-pyrazol-4-yl)pyridin-2-yl)-2,3-dihydrofuro[2,3-b]pyridine-5-carboxamide] | 4.5 | more than 25 times

From patent US20250074919A1, “Heteroaryl compounds as inhibitors of irak4, compositions and applications thereof” (Accro Bioscience (HK) Limited, priority 2021, published 2025)
